{
  "sequences": {"note": "Protein sequences, listed by entry. Tags and fused reporters are not part of them.", "UniProt Q92731, whole entry": "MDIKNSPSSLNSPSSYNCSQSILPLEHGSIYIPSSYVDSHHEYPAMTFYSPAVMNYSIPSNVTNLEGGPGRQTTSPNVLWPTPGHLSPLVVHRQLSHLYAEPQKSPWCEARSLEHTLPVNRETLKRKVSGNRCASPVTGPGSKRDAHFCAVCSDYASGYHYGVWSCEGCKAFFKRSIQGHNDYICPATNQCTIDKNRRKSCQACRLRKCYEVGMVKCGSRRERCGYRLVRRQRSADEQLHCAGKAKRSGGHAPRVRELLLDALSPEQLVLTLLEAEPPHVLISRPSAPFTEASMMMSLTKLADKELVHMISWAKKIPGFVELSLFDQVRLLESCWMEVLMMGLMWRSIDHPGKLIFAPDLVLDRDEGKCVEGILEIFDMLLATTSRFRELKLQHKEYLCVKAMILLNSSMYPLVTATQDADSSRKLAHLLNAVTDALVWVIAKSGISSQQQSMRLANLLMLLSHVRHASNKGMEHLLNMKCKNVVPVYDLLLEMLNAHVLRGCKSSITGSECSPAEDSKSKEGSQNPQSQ"},
  "source": "patent US6962928B2",
  "about": "“Tetrahydroquinoline derivatives for the inhibition of osteoporosis, estrogen dependent breast cancer, endometriosis and uterine fibrosis” (Eli Lilly and Company, priority 2001, dated 2005)",
  "target": "ERbeta receptor (Homo sapiens, UniProt Q92731)",
  "conditions": "read-out: Ki (ERβ); IC50 converted to Ki using Cheng-Prusoff equation",
  "data": [
    {"smiles": "Oc1ccc(C2CCc3cc(O)ccc3N2c2ccc(OCCN3CCCCC3)cc2)cc1", "note": "(stereo not shown) [Example 3]", "values": [
      {"measurement": "Ki", "value": 8.03, "unit": "nM"}
    ]}
  ]
}
